Measured affinities in a library of Ab-14 light chain variants

Binding partner: SARS-CoV-2 spike HR2 peptide, sequence PDVDLGDISGINAS.

Parent scFv Ab-14: VH joined to VL by a 15-residue (Gly4Ser)3 linker. Changes lie in the light chain CDRs alone.
VH: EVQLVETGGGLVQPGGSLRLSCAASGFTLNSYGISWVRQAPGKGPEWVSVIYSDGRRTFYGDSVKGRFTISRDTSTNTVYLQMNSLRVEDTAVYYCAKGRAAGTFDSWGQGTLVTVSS
VL: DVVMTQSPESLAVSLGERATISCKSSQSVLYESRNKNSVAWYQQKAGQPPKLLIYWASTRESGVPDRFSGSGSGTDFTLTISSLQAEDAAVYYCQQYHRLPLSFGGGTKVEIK

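The parent was found by panning a naive human phage display library on the peptide. Designed CDR sequences, proposed from the first random library and measured here. Group labels follow the data file (Ctrl: baseline library sampled from a position-specific scoring matrix, with some repeated check sequences; Rand: our label for a block that the file lists under HC and that is probably the random mutants of the ten best first-round binders; GP: Gaussian process model; HC: hill climbing; Gen: genetic algorithm; Gibbs: Gibbs sampling; a sequence that several methods proposed may carry one label only). In AlphaSeq, yeast of one mating type display the scFv and yeast of the other type display the target. Pairs that bind mate more often; barcode pairs of the diploids are counted by sequencing. Each replicate has its own calibration line, from reference interactions of the BCL2 family. Mating was done six times.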

Substitutions are numbered in sequence along the VL above, starting at 1 (not Kabat).
Variants here have at most six changes.
Scale: log10 of Kd in nM, estimated from mating counts; low values are strong binders.
"nd" marks a missing value. The strain was present, yet no cells mated with the target were sequenced in that replicate, which points to weak or no binding.
The parent sequence was in this pool as ten entries: three were never detected, three once, and four in most replicates, with averages from 0.34 to 2.37.
In the paper, a design with two or fewer of six values counts as a poor binder.
The range of this assay differs from that of the first round, and the authors advise against merging the two.
As a blank, each scFv also met three strains without target: over all light chain designs, 4% of these pairings were detected, typically at 2.64 and seldom below 1.59.
Some sequences occur more than once in the pool; their replicates are listed entry by entry, parted by semicolons.

| changes | group | log10 Kd (nM) by replicate |
|---|---|---|
| Y31G W56G S62R | Ctrl | 0.87 / 0.92 / 0.59 / 0.78 / 0.96 / 0.81 |
| S25L S26R V29Q K36Q W56N | GP_HC | -0.04 / -0.09 / -0.34 / -0.40 / -0.38 / -0.30 |
| S25L S26E V29E L30P W56N | GP_Gen | 0.15 / -0.26 / -0.25 / -0.07 / -0.15 / 0.08 |
| S26G S28G R34A W56G Q96K | Rand | 0.66 / 0.45 / -0.02 / 0.65 / 0.34 / 0.69 |
| Q27T S28D V29M W56S | Ctrl | 0.23 / -0.06 / 0.05 / 0.23 / 0.13 / 0.11 |
| W56A H98K | Ctrl | 0.81 / 0.58 / 0.53 / 0.48 / 0.26 / 0.54 |
| Q27M R34H W56N E61M | GP_HC | 0.89 / 0.66 / 0.92 / 0.75 / 0.67 / 0.60 |
| S25L S26E W56H S62D Q95K | GP_HC | 0.35 / 0.24 / 0.07 / 0.17 / 0.05 / 0.23 |
| S25Q W56M H98S | GP_HC | 1.18 / 1.04 / 0.30 / 1.31 / 0.71 / 0.79 |
| S25L S26D W56E T59Q | GP_Gen | 0.23 / -0.05 / 0.11 / 0.04 / -0.04 / 0.33 |
| S25I V29Q K36T N37K W56N E61V | GP_Gibbs | 0.32 / 0.12 / 0.01 / -0.01 / -0.03 / 0.11 |
| S25W W56G | GP_Gen | 0.47 / 0.08 / 0.49 / -0.24 / 0.41 / 1.02 |
| S25L V29D S38A W56A | GP_Gen | -0.07 / -0.40 / -0.37 / -0.21 / -0.37 / -0.26 |
| S25L V29D L30E W56N | GP_Gen | 0.17 / 0.11 / 0.20 / 0.05 / 0.06 / 0.26 |
| K24M V29Q N37M | Ctrl | 0.85 / 0.75 / 0.90 / 1.43 / 1.58 / 0.75 |
| S28F L30W Y31F S33T R34T W56D | Ctrl | -0.33 / -0.21 / -0.35 / -0.62 / -0.46 / -0.33 |
| V29Y L30M W56G | GP_HC | 0.61 / -0.04 / -0.15 / -0.09 / -0.03 / 0.37 |
| S25L Q27F V29M W56D | GP_Gen | 0.01 / 0.07 / -0.46 / -0.19 / -0.16 / -0.27 |
| S25L S26Q V29E W56S E61M | GP_Gen | 0.23 / -0.10 / -0.07 / -0.19 / -0.02 / 0.17 |
| S25L W56K | Ctrl+GP_Gen | 0.70 / 0.44 / 0.48 / 0.78 / 0.44 / 1.05; 0.23 / 0.26 / 0.21 / 0.45 / 0.40 / 0.39 |
| S25M S33E | Ctrl | 1.58 / 0.47 / 0.86 / 0.38 / 0.64 / 0.64 |
| N37H L100W | Ctrl | nd / nd / nd / nd / nd / nd |
| S25L S26Q L30E W56H | GP_Gen | -0.08 / -0.24 / -0.12 / -0.27 / 0.08 / -0.10 |
| S25Y S38A W56D | GP_HC | 0.47 / -0.25 / -0.07 / -0.13 / 0.04 / 0.09 |
| R34T Q95K | Ctrl | nd / nd / nd / nd / nd / nd |
| L30W R60G S103D | Ctrl | nd / 2.95 / nd / nd / 2.62 / 2.43 |
| L30Y S33K | Ctrl | nd / nd / nd / nd / nd / nd |
| S25V S26Q V29M W56N | GP_Gen | -0.12 / -0.31 / -0.25 / -0.29 / -0.27 / 0.02 |
| S25L V29M N35Q W56N T59Q | GP_Gen | 0.02 / 0.02 / 0.01 / 0.07 / -0.01 / 0.09 |
| S25I V29F K36V W56G | GP_HC | -0.03 / -0.21 / -0.38 / -0.11 / -0.09 / 0.05 |

Top 2 of the variants detected in all replicates, tightest first:

changes	group	log10 Kd (nM) by replicate
S28F L30W Y31F S33T R34T W56D	Ctrl	-0.33 / -0.21 / -0.35 / -0.62 / -0.46 / -0.33
S25L V29D S38A W56A	GP_Gen	-0.07 / -0.40 / -0.37 / -0.21 / -0.37 / -0.26

Data: MIT Lincoln Laboratory AlphaSeq set, Li et al. 2023, doi:10.1038/s41467-023-39022-2, as distributed in FLAb.